Measured values taken from US20220152156A1, “METHOD OF USING PEGYLATED INTERFERON-ALPHA” (PharmaEssentia Corporation, priority 2020, published 2022).

Tests used:
[1] = system: PV patients; test: PROUD-PV/CONTINUATION-PV phase III study: complete hematologic response (CHR); type: in vivo, human; details: for Complete hematologic response Responder % / Complete hematologic response Responder/N: discontinued patients counted as non-responders
Source text: Cytoreduction-naïve or HU-pre-treated patients aged ≥18 years diagnosed with PV according to WHO 2008 criteria were eligible. […] The PROUD-PV study was a randomized, open-label, multicenter, controlled, parallel arm, phase III study assessing the efficacy and safety of ropeg versus HU in PV patients.
In the ongoing extension phase (CONTINUATION-PV or CONTI-PV), patients in the HU arm were permitted to switch to best available treatment. Efficacy assessments included a longitudinal analysis of complete hematological response and complete molecular response, defined by modified ELN criteria. Discontinued patients were considered non-responders. Data were analyzed for patients reaching 48 months and 60 months of treatment.
Long-term disease responses were presented as complete hematologic response (CHR) alone or in relation to spleen size. CHR includes hematocrit <45% (without phlebotomy for at least 3 months), platelet count <400×10^9/L, white blood cell count <10×10^9 cells/L, with or without normal spleen size (measured via ultrasound; ≤12 cm for females, ≤13 cm for males), and absence of thromboembolic events.
Efficacy analysis included CHR, spleen normality, and improvement in disease burden such as disease-related signs and symptoms.

[2] = system: JAK2V617F allele burden; test: PROUD-PV/CONTINUATION-PV: JAK2V617F allele burden and molecular response (real-time PCR); type: in vivo, human
[3] = month 12 (EOT in PR), LOCF table
[4] = 60 months, only patients with baseline value ≥10%

ropeginterferon alpha-2b
Median duration of maintenance of CHR ([1]; 52-month observation period): median was not reached
Discontinued patients showing CHR at their last visits ([1]; among discontinued patients): 68%
Percentage of phlebotomy-free patients vs control (FIG. 2) ([1]; at the 4-year and 5-year treatment): significant greater percentage
Patients with hematocrit <45% maintained without the need for phlebotomy ([1]; fifth year of treatment): 81.8%
Rate of patients in CHR ([1]; in the 4th year): 60.6%
Maintenance periods of longest CHR with no increase in spleen size and longest CHR with normal spleen size, vs control ([1]; in vivo): Longer maintenance periods
CHR RR [95% CI] (Ropeg/Control) [1, 3]: 0.85 (0.70-1.04)
CHR Responder % [1, 3]: 62.1%
CHR Responder N [1, 3]: 59
CHR RR [95% CI] (Ropeg/Control) ([1]; month 12 (EOT in PR), discontinued = non-responders): 0.85 (0.70-1.05)
Complete hematologic response Responder % ([1]; month 12 (EOT in PR)): 62.1%
Complete hematologic response Responder/N ([1]; month 12 (EOT in PR)): 59/95
CHR RR [95% CI] (Ropeg/Control) ([1]; month 24 (LOCF)): 1.27 (1.02-1.60)
CHR Responder % ([1]; month 24 (LOCF)): 73.7%
CHR Responder N ([1]; month 24 (LOCF)): 70
CHR RR [95% CI] (Ropeg/Control) ([1]; month 24, discontinued = non-responders): 1.41 (1.07-1.84)
Complete hematologic response Responder % ([1]; month 24): 70.5%
Complete hematologic response Responder/N ([1]; month 24): 67/95
CHR RR [95% CI] (Ropeg/Control) ([1]; month 36 (LOCF)): 1.43 (1.13-1.81)
CHR Responder % ([1]; month 36 (LOCF)): 76.8%
CHR Responder N ([1]; month 36 (LOCF)): 73
CHR RR [95% CI] (Ropeg/Control) ([1]; month 36, discontinued = non-responders): 1.39 (1.08-1.78)
Complete hematologic response Responder % ([1]; month 36): 70.5%
Complete hematologic response Responder/N ([1]; month 36): 67/95
CHR RR [95% CI] (Ropeg/Control) ([1]; month 48 (LOCF)): 1.46 (1.13-1.89)
CHR Responder % ([1]; month 48 (LOCF)): 71.6%
CHR Responder N ([1]; month 48 (LOCF)): 68
CHR RR [95% CI] (Ropeg/Control) ([1]; month 48, discontinued = non-responders): 1.39 (1.04-1.86)
Complete hematologic response Responder % ([1]; month 48): 60.6%
Complete hematologic response Responder/N ([1]; month 48): 57/94
CHR Non-Responder % ([1]; month 60): 44.2%
CHR Non-Responder/N ([1]; month 60): 42/95
Not meeting CHR because of Hct and platelets, % of non-responders ([1]; month 60): 7.1%
Not meeting CHR because of Hct and platelets, patients ([1]; month 60): 3
Not meeting CHR because of hematocrit (Hct), % of non-responders ([1]; month 60): 28.6%
Not meeting CHR because of hematocrit (Hct), patients ([1]; month 60): 12
Not meeting CHR because of platelets, % of non-responders ([1]; month 60): 4.8%
Not meeting CHR because of platelets, patients ([1]; month 60): 2
Not meeting CHR because of premature discontinuation, % of non-responders ([1]; month 60): 59.5%
CHR RR [95% CI] (Ropeg/Control) ([1]; month 60 (LOCF)): 1.43 (1.12-1.81)
CHR Responder % ([1]; month 60 (LOCF)): 72.6%
CHR Responder N ([1]; month 60 (LOCF)): 69
CHR RR [95% CI] (Ropeg/Control) ([1]; month 60, discontinued = non-responders): 1.30 (0.95-1.77)
Complete hematologic response Responder % ([1]; month 60): 55.8%
Complete hematologic response Responder/N ([1]; month 60): 53/95
Additional patients achieving an allele burden <10% ([2]; 48 months): 34
Patients with JAK2V617F <1% ([2]; 48 months): 13
Patients with JAK2V617F <1% and CHR ([2]; 48 months): 11
Patients with JAK2V617F <1% and CHR, % ([2]; 48 months): 11.7%
Patients with JAK2V617F <1%, % ([2]; 48 months): 13.8%
Patients with JAK2V617F ≥1 to <10% ([2]; 48 months): 34
Patients with JAK2V617F ≥1 to <10% and CHR ([2]; 48 months): 24
Patients with JAK2V617F ≥1 to <10% and CHR, % ([2]; 48 months): 25.5%
Patients with JAK2V617F ≥1 to <10%, % ([2]; 48 months): 36.2%
JAK2V617F undetectable and CHR [2, 4]: 4/5
JAK2V617F ≥0.01% to <1% and CHR [2, 4]: 9/10
JAK2V617F ≥1 to <10% and CHR [2, 4]: 19/22
Total patients with JAK2V617F <10%, % [2, 4]: 53%
JAK2V617F allele burden, mean ([2]; Baseline): 42.8%
JAK2V617F allele burden, median ([2]; Baseline): 37.3%
Molecular response RR (ropeg vs control) ([2]; at 5 years): 3.2
Rate of molecular response ([2]; at 5 years): 69.1%
Molecular response RR (ropeg vs control) ([2]; at 48 months): 2.5
Rate of molecular response (partial or complete) ([2]; at 48 months): 67.0%
Median JAK2V617F allele burden ([2]; at baseline): 37.3%
Molecular response Responder % [2, 3]: 43.6%
Molecular response Responder/N [2, 3]: 41/94
JAK2V617F allele burden RR [95% CI] (Ropeg/Control) ([2]; month 12, LOCF table): 6.646 (0.86 to 12.43)
JAK2V617F allele burden, mean ([2]; month 12, LOCF table): 30.2%
JAK2V617F allele burden, median ([2]; month 12, LOCF table): 24.4%
JAK2V617F allele burden RR [95% CI] (Ropeg/Control) ([2]; month 24 (LOCF)): −10.745 (−16.50 to −4.98)
JAK2V617F allele burden, mean ([2]; month 24 (LOCF)): 20.9%
JAK2V617F allele burden, median ([2]; month 24 (LOCF)): 14.3%
Molecular response Responder % ([2]; month 24 (LOCF)): 68.1%
Molecular response Responder/N ([2]; month 24 (LOCF)): 64/94
JAK2V617F allele burden RR [95% CI] (Ropeg/Control) ([2]; month 36 (LOCF)): −18.722 (−24.49 to −12.96)
JAK2V617F allele burden, mean ([2]; month 36 (LOCF)): 19.7%
JAK2V617F allele burden, median ([2]; month 36 (LOCF)): 11.3%
Molecular response Responder % ([2]; month 36 (LOCF)): 66.0%
